This assay addresses T1, His-tagged cytoplasmic domain of EGFR (Homo sapiens, UniProt P00533).
T1 construct: containing the EGFR cDNA encoding amino acids 645 - 1186 preceded by Met-Ala-(His)6; Met-Ala-(His)6 (N); made in house; host or cells: Sf9 insect cells, recombinant baculovirus vHcEGFR52
Nature of the assay: Inhibition of Epidermal Growth Factor Receptor Kinase (EGF-R) using recombinant enzyme, RR-SRC peptide phosphorylation. It is filed as biochemical.

The term IC50 denotes the point on the concentration scale where inhibition reaches its midpoint. As for “N-[4-(3-Bromo-phenylamino)-quinazolin-6-yl]-2-morpholin-4-ylmethyl-acrylamide [Example 63]”, the IC50 was found to be 5 pM.

These data come from patent publication EP1000039B1 (Wyeth Holdings Corporation, priority 1997, dated 1999).
